The list shows a part of the results, in another mix than the full data. The source made the active and inactive calls.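 How the source made its calls: active means inhibition of 50% or more, scaled per plate between neutral and stimulator controls; inactive means the rest.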
Assay: blockers of Ca2+-induced mitochondrial swelling – biochemical, isolated mouse mitochondria, absorbance, primary screen (AID 602449);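 further: 0% = DMSO wells given calcium and 100% = 1 mM EGTA wells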
Conditions: 30 min, at 10 µM, active compounds read high

| Compound | inhibition |
| --- | --- |
| O=[N+]([O-])c1ccc(NC(=S)NCc2ccc(F)cc2)cc1 | active: 95.2% |
| Fc1ccc(CNC(=S)Nc2cccc(Cl)c2)cc1 | active: 96.1% |

From PubChem BioAssay AID602449 (Sanford-Burnham Center for Chemical Genomics, 2012)
